Molecules are shown by their SMILES. The entries are a selection whose mix differs from that of the whole data set. Some tests of the compounds listed are not included; inactive here does not mean inactive elsewhere. Calls of active or inactive are those of the source.

The test can be described thus: blockers of Ca2+-induced mitochondrial swelling – biochemical, isolated mouse mitochondria, absorbance, primary screen (AID 602449).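 Further: 0% = DMSO wells given calcium and 100% = 1 mM EGTA wells.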 To be noted: 30 min, at 10 µM, stronger effect = higher value.
As to `Cc1ccccc1C(=O)NCC1(N2CCCCC2)CCCCC1`, the inhibition was inactive: 1.4%.

`CN(C)C1CCCC1OC(=O)C(O)(c1ccccc1)c1ccccc1` (stereo unspecified): the inhibition was inactive: -1.8%.

Turning to `CN(C)c1ccc(C(=O)NCC2(N(C)C)CCCCC2)cc1`, the inhibition was inactive: -0.5%.

`C=CCN1CCN(CCOC(=O)C(O)(c2ccccc2)c2ccccc2)CC1`: the inhibition was inactive: -1.4%.

Take `O=C(NCC1(N2CCCCC2)CCCCC1)c1cc(F)c(F)cc1Cl`: the inhibition is inactive: 1.9%.

As for `Cc1cc(C(=O)NCC2(N3CCCCC3)CCCCC2)ccc1[N+](=O)[O-]`, the inhibition is inactive: -0.8%.

For the compound `CCN1CCCC(OC(=O)C2(O)c3ccccc3C=Cc3ccccc32)C1` (stereo unspecified), the inhibition is inactive: 0.5%.

As to `O=C(NCC1(N2CCCCC2)CCCCC1)c1cccc(Br)c1`, the inhibition is inactive: -0.5%.

With `COc1ccc(C(=O)NCC2(N(C)C)CCCCC2)cc1`, the inhibition is inactive: -1.3%.

Turning to `O=C(NCC1(N2CCCCC2)CCCCC1)c1cc([N+](=O)[O-])ccc1Cl`, the inhibition was inactive: -0.9%.

Turning to `CN1[C@@H]2CC[C@H]1CC(OC(=O)C(O)(c1ccccc1)c1ccccc1)C2` (stereo partly specified), the inhibition was inactive: -0.8%.

As for `CC(C)N1C(=O)CC2(CCN(CCOC(=O)C(O)(c3ccccc3)c3ccccc3)CC2)C1=O`, the inhibition was inactive: -0.3%.

As for `CCN(CC)CC(C)C(C)OC(=O)C(O)(c1ccccc1)c1ccccc1` (stereo unspecified), the inhibition was inactive: 0.1%.

In the case of `COc1cc(SC)ccc1C(=O)NCC1(N(C)C)CCCCC1`, the inhibition was inactive: 0%.

Consider `Cc1ccc(C(=O)NCC2(N3CCCCC3)CCCCC2)cc1`, for which the inhibition is inactive: -0.6%.

In the case of `O=C(OC1CN2CCC1CC2)C(CO)(c1ccccc1)c1ccccc1` (stereo unspecified), the inhibition is inactive: -0.7%.

Take `COc1ccc(Br)c(C(=O)NCC2(N3CCCCC3)CCCCC2)c1`: the inhibition is inactive: 0.7%.

Take `C=C(C)C#CC(O)(C(=O)OC1CCN(C)CC1)c1ccccc1` (stereo unspecified): the inhibition was inactive: -1.5%.

Consider `CN(C)c1cccc(C(=O)NCC2(N(C)C)CCCCC2)c1`, for which the inhibition is inactive: -1.2%.

Turning to `CC(C)Oc1ccc(C(=O)NCC2(N(C)C)CCCCC2)cc1`, the inhibition is inactive: 0.6%.

As for `O=C(OCCN1CCCC1)C(O)(c1ccccc1)c1ccccc1`, the inhibition was inactive: 0.1%.

On to `CN(C)C1(CNC(=O)c2ccc(Br)cc2)CCCCC1`, for which the inhibition was inactive: -0.4%.

`COc1cc(C(=O)NCC2(N(C)C)CCCCC2)c([N+](=O)[O-])cc1OC`: the inhibition was inactive: -1.2%.

As for `COc1cccc(C(=O)NCC2(N3CCCCC3)CCCCC2)c1`, the inhibition is inactive: -0.7%.

Regarding `COc1ccc(Cl)cc1C(=O)NCC1(N(C)C)CCCCC1`, the inhibition was inactive: -1.2%.

Regarding `O=C(NCC1(N2CCCCC2)CCCCC1)c1cccc(Cl)c1`, the inhibition is inactive: -0.1%.

Source of the values: PubChem BioAssay AID602449 (Sanford-Burnham Center for Chemical Genomics, 2012).
